Structures are written as SMILES.

Sequences of proteins named here, by UniProt entry; tags and fusion partners are left off.
UniProt P52333, whole entry, species assumed: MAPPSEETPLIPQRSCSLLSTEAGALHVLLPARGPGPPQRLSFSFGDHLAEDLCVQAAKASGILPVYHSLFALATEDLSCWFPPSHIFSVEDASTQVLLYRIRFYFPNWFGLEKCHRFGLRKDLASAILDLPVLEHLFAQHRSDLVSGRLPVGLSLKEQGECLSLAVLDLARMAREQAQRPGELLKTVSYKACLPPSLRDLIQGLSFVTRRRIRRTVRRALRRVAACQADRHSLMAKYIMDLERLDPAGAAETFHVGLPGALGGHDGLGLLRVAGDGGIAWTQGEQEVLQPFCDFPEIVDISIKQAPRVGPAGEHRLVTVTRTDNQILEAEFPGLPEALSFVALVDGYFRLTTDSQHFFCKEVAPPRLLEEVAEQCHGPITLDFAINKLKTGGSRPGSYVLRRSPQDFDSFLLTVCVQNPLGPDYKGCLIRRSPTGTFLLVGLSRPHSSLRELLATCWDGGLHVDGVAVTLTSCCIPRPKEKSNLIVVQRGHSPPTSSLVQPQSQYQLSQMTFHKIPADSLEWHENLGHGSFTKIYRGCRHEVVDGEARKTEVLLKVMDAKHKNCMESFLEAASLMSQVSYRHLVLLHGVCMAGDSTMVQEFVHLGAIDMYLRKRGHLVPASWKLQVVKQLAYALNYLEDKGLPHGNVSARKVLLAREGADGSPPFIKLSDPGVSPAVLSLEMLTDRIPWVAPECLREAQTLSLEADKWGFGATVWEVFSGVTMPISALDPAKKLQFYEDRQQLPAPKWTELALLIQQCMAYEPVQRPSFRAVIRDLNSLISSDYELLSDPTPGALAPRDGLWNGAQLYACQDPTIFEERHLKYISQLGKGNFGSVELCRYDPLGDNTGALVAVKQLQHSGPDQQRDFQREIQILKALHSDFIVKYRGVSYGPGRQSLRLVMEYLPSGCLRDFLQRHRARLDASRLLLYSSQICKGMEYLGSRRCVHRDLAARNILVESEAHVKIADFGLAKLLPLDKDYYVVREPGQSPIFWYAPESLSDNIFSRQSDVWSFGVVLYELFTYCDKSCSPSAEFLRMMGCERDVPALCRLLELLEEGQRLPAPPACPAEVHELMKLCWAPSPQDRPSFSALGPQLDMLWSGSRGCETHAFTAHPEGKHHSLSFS

Broadly, the IC50 is the concentration that inhibits the measured activity by half.

One assay concerns the target JAK3 enzyme (Homo sapiens (Human), UniProt P52333). Briefly: JAK Caliper Enzyme Assay at 4 μM or 1 mM ATP. It is filed as biochemical. The note with it: read-out: JAK3 (4 μM ATP) IC50; 4 μM ATP. Here is the method: JAK Caliper Enzyme Assay at […] or 1 mM ATP
Test article was solubilized in dimethyl sulfoxide (DMSO) to a stock concentration of 30 mM. An 11-point half log dilution series was created in DMSO with a top concentration of 600 μM. […] The compound plates were diluted 1 to 60 resulting in a top final assay compound concentration of 10 μM and a 2% DMSO concentration.
Test article and assay controls were added to a 384-well plate. Reaction mixtures contained 20 mM HEPES, pH 7.4, 10 mM magnesium chloride, 0.01% bovine serum albumin (BSA), 0.0005% Tween […] or 1 mM ATP and […] peptide substrate. […] The assays were initiated by the addition 1 nM JAK3 enzyme and were incubated at room temperature 75 minutes for JAK3. Enzyme concentrations and incubation times were optimized for each new enzyme preps and were modified slightly over time to ensure 20%-30% phosphorylation. The assays were stopped with a final concentration of 10 mM EDTA, 0.1% Coating Reagent and 100 mM HEPES, pH=7.4. The assay plates were placed on a Caliper Life Science Lab Chip 3000 (LC3000) instrument, and each well was sampled using appropriate separation conditions to measure the unphosphorylated and phosphorylated peptide.
In the case of `C=C(CN(C)C)C(=O)N1CCC[C@@H](Nc2ncnc3[nH]ccc23)C1` [Example 92, 2-[(dimethylamino)methyl]-1-[(3R)-3-(7H-pyrrolo[2,3-d]pyrimidin-4-ylamino)piperidin-1-yl]prop-2-en-1-one], the IC50 was 4.75 µM.

For the compound `C/C=C/C(=O)N1CCC[C@@H](Nc2ncnc3[nH]cc(CCO)c23)C1` [Example 151, (2E)-1-[(3R)-3-{[5-(2-hydroxyethyl)-7H-pyrrolo[2,3-d]pyrimidin-4-yl]amino]piperidin-1-yl]but-2-en-1-one], the IC50 was determined as 3.49 µM. As for `CC(C)=C(C#N)C(=O)N1CCCC(Nc2ncnc3[nH]ccc23)C1` (stereo not drawn) [Example 96, 3-methyl-2-{[3-(7H-pyrrolo[2,3-d]pyrimidin-4-ylamino)piperidin-1-yl]carbonyl}but-2-enenitrile], the half-maximal inhibitory concentration (IC50) was 2.74 µM.

The same assay, now with this note: read-out: JAK3 (1 mM ATP) IC50; 1 mM ATP.
`C=CC(=O)N(C)[C@@H]1CCN(c2cnc3[nH]cc(C(=O)NC(C)C)c3n2)C1` [Example 190, 2-{(3R)-3-[acryloyl(methyl)amino]pyrrolidin-1-yl}-N-(propan-2-yl)-5H-pyrrolo[2,3-b]pyrazine-7-carboxamide]: the half-maximal inhibitory concentration (IC50) was determined as 1.01 µM.

As to `C=CC(=O)N1CCC(Oc2cnc3[nH]cc(-c4c(C)nn(C)c4C)c3n2)CC1` [Example 221, 1-(4-{[7-(1,3,5-trimethyl-1H-pyrazol-4-yl)-5H-pyrrolo[2,3-b]pyrazin-2-yl]oxy}piperidin-1-yl)prop-2-en-1-one], the IC50 came to 1.48 µM. `C=CC(=O)N1CCC(Nc2cnc3[nH]cc(C(=O)NC(C)(C)C)c3n2)C[C@@H]1C` (mixture of isomers) [Example 340]: the IC50 was determined as 1.39 µM. Turning to `C=CC(=O)NC1CCN(c2cnc3[nH]cc(C(=O)NC(C)C)c3n2)C1` (stereo not drawn) [Example 195, 2-[3-(acryloylamino)pyrrolidin-1-yl]-N-(propan-2-yl)-5H-pyrrolo[2,3-b]pyrazine-7-carboxamide], the IC50 was 0.97 µM. `C=CC(=O)N1CCN(c2cnc3[nH]ccc3n2)CC1` [Example 172, 1-[4-(5H-pyrrolo[2,3-b]pyrazin-2-yl)piperazin-1-yl]prop-2-en-1-one]: the IC50 came out at 2.23 µM. For the compound `O=C(/C=C/C(F)(F)F)N1CC[C@@H]2CCN(c3ncnc4[nH]ccc34)[C@@H]2C1` [Example 81, (2E)-4,4,4-trifluoro-1-[(3aS,7aS)-1-(7H-pyrrolo[2,3-d]pyrimidin-4-yl)octahydro-6H-pyrrolo[2,3-c]pyridin-6-yl]but-2-en-1-one], the 50% inhibitory concentration (IC50) was 3.75 µM. With `C=CC(=O)N1CC[C@@H]2CCN(c3nc(N)nc4[nH]ccc34)[C@@H]2C1` [Example 73, 1-[(3aS,7aS)-1-(2-Amino-7H-pyrrolo[2,3-d]pyrimidin-4-yl)octahydro-6H-pyrrolo[2,3-c]pyridin-6-yl]prop-2-en-1-one], the half-maximal inhibitory concentration (IC50) is 1.96 µM. On the same count and under the same terms, the value for `C=CC(=O)N[C@@H]1CCN(c2cnc3[nH]cc(C(=O)NC(C)C)c3n2)C1` [Example 181, 2-[(3R)-3-(acryloylamino)pyrrolidin-1-yl]-N-(propan-2-yl)-5H-pyrrolo[2,3-b]pyrazine-7-carboxamide] was 1.02 µM; that for `C=CC(=O)N1CC2(CCN(c3cnc4[nH]cc(C(=O)NC(C)C)c4n3)C2)C1` [Example 296, 2-(2-acryloyl-2,6-diazaspiro[3.4]oct-6-yl)-N-(propan-2-yl)-5H-pyrrolo[2,3-b]pyrazine-7-carboxamide] was 4.2 µM.

As for `O=C(/C=C/C(F)F)N1CC[C@@H]2CCN(c3ncnc4[nH]ccc34)[C@@H]2C1` [Example 80, (2E)-4,4-difluoro-1-[(3aS,7aS)-1-(7H-pyrrolo[2,3-d]pyrimidin-4-yl)octahydro-6H-pyrrolo[2,3-c]pyrdin-6-yl]but-2-en-1-one], the IC50 came out at 2.94 µM. As for `C=CC(=O)N1CCC(Oc2cnc3[nH]cc(-c4cnc(N5CCOCC5)nc4)c3n2)CC1` [Example 223, 1-[4-({7-[2-(morpholin-4-yl)pyrimidin-5-yl]-5H-pyrrolo[2,3-b]pyrazin-2-yl}oxy)piperidin-1-yl]prop-2-en-1-one], the IC50 turned out to be 3.36 µM.

As for `C=CC(=O)N1CCC[C@@H](Nc2ncnc3[nH]cc(-c4ccc(OCC)nc4)c23)C1` [Example 33, 1-[(3R)-3-{[5-(6-ethoxypyridin-3-yl)-7H-pyrrolo[2,3-d]pyrimidin-4-yl]amino}piperidin-1-yl]prop-2-en-1-one], the IC50 came to 3.81 µM.

The values above are taken from patent publication US20250134869A1, “Pyrrolo[2,3-d]pyrimidinyl, Pyrrolo[2,3-b]pyrazinyl and Pyrrolo[2,3-d]pyridinyl Acryla-mides” (Pfizer Inc, priority 2021, published 2025).
